# Experimental data published in PubChem BioAssay AID504467 (National Center for Advancing Translational Sciences (NCATS), 2011).
# This is a selection; strong and weak results do not stand in their true shares. Some results for these compounds are left out of this collection, so the calls shown say nothing about other tests. Records with an inconclusive call do not appear. Calls of active or inactive are those of the source. Calls follow the shape of the dose curve; as a rule, active = well fitted inhibition curve with a large enough effect; inconclusive = small, poorly fitted or top-dose-only effect, or effect the other way; inactive = flat fitted curve, though single readings scatter.
# Experiment: qHTS screen for small molecules that inhibit ELG1-dependent DNA repair in human embryonic kidney (HEK293T) cells expressing luciferase-tagged ELG1; also: nearly all actives have a fitted effect of over 55% in size
# Conditions: HEK293T ELG1-luciferase reporter, luminescence, 16 h, DNA damage induced by 5-fluorouridine; at 46.1 µM (top of the series)
# % is scaled to controls: 0 for no effect and ±100 for the full control effect.
row,Structure (SMILES),"activity change, negative = inhibition"
1,COc1ccc(Br)c(C(=O)NCC2(N3CCCCC3)CCCCC2)c1,inactive: 17.7%
2,CN(C)c1cccc(C(=O)NCC2(N(C)C)CCCCC2)c1,inactive: 16%
3,O=C(OC1CN2CCC1CC2)C(CO)(c1ccccc1)c1ccccc1 (centres undefined),inactive: 4.51%
4,COc1ccc(Cl)cc1C(=O)NCC1(N(C)C)CCCCC1,inactive: 0.101%
5,CN(C)C1(CNC(=O)c2ccc(Br)cc2)CCCCC1,inactive: 4.61%
6,COc1cc(C(=O)NCC2(N(C)C)CCCCC2)c([N+](=O)[O-])cc1OC,inactive: 0%
7,C=CCN1CCN(CCOC(=O)C(O)(c2ccccc2)c2ccccc2)CC1,inactive: 5.41%
8,COc1ccc(C(=O)NCC2(N(C)C)CCCCC2)cc1,inactive: 17.1%
9,Cc1cc(C(=O)NCC2(N3CCCCC3)CCCCC2)ccc1[N+](=O)[O-],inactive: -7.39%
10,CCN1CCCC(OC(=O)C2(O)c3ccccc3C=Cc3ccccc32)C1 (centres undefined),inactive: -10.4%
11,Cc1ccccc1C(=O)NCC1(N2CCCCC2)CCCCC1,inactive: 2.2%
12,CN(C)C1CCCC1OC(=O)C(O)(c1ccccc1)c1ccccc1 (centres undefined),inactive: 1.8%
13,CN(C)c1ccc(C(=O)NCC2(N(C)C)CCCCC2)cc1,inactive: 0%
14,CCN(CC)CC(C)C(C)OC(=O)C(O)(c1ccccc1)c1ccccc1 (centres undefined),inactive: -5.34%
15,COc1cc(SC)ccc1C(=O)NCC1(N(C)C)CCCCC1,inactive: 3.46%
16,CC(C)N1C(=O)CC2(CCN(CCOC(=O)C(O)(c3ccccc3)c3ccccc3)CC2)C1=O,inactive: 11%
17,Cc1ccc(C(=O)NCC2(N3CCCCC3)CCCCC2)cc1,inactive: 29.6%
18,O=C(NCC1(N2CCCCC2)CCCCC1)c1cc([N+](=O)[O-])ccc1Cl,inactive: 22.6%
19,CN1[C@@H]2CC[C@H]1CC(OC(=O)C(O)(c1ccccc1)c1ccccc1)C2 (some centres undefined),inactive: 14.1%
